Reference: US9924715B2, “Zinc or copper (II) salt and use thereof as a biocide” (LABORATORIYA BIO ZET, LLC, priority 2014, dated 2018)

Legend:
[1] = test system: human immunodeficience virus (HIV); test: Virucidal activity, suspension test in vitro (MU 3.52431-08); type: cell-based
Excerpt: Virucidal activity of copper acrylate-propionate obtained as described in example 4 was investigated by analogy with examples 14-19.
Virucidal activity of zinc methacrylate-myristate obtained as described in example 11 was investigated by analogy with examples 14-19.

[2] = biocide 0.01 % in aqueous solution, exposure 30 min
[3] = biocide 0.01 %, exposure 60 min
[4] = biocide 0.05 %, exposure 30 min
[5] = biocide 0.05 %, exposure 60 min

SMILES | Degree of virus inhibition, lg TCID50 [1, 2] [lg TCID50] | Degree of virus inhibition, lg TCID50 [1, 3] [lg TCID50] | Degree of virus inhibition, lg TCID50 [1, 4] [lg TCID50] | Degree of virus inhibition, lg TCID50 [1, 5] [lg TCID50] | Degree of virus inhibition, lg TCID50 ([1]; biocide 0.1 %, exposure 30 min) [lg TCID50] | Degree of virus inhibition, lg TCID50 ([1]; biocide 0.1 %, exposure 60 min) [lg TCID50] | Degree of virus inhibition, lg TCID50 (influenza A virus) [lg TCID50] | Virucidal activity (criterion for disinfectants: inhibition not less than 4 lg TCID50) (influenza A virus)
C=CC(=O)[O-].CCCCCC(=O)[O-].[Zn+2] [Zinc acrylate-capronate] | 0.0 | 0.0 | 2.0 | 3.5 | 4.5 | 5.0 | – | –
C=C(C)C(=O)[O-].CC(=O)[O-].[Zn+2] [Zinc methacrylate-acetate, zinc methacrylate-acetate, reference compound] | 0.0 | 0.0 | 0.0 | 0.0 | 1.0 | 2.5 | 0.0 | does not substantially exhibit virucidal activity
C=CC(=O)[O-].CCC(=O)[O-].[Cu+2] [Copper acrylate-propionate] | 0.0 | 1.0 | 3.0 | 3.5 | 4.0 | 5.0 | – | –
